Source: patent US7262192B2, “Substituted pyrazolo[4,3-d]pyrimidines and their use as PDE-5 inhibitors” (Pfizer Inc., priority 2003, dated 2007)
pIC50: −log10 of the molar value. Counter-ions that a name gives are not always drawn.

Molecular target: cGMP-specific PDE-5 (UniProt O76074)
Assay: PDE-5 inhibition, batch method or scintillation proximity assay
Assay type: biochemical, human
Settings: activity against PDE-5; representative preferred compounds
Text: The compounds of the invention are inhibitors of cyclic guanylate monophosphate (cGMP)-specific phosphodiesterase type 5 (PDE-5 inhibitors).
The required PDE enzymes can be isolated from a variety of sources, including human corpus cavernosum, human and rabbit platelets, human cardiac ventricle, human skeletal muscle and bovine retina, essentially by a modification of the method of Thompson, W J et al.; Biochemistry 18(23), 5228-5237, 1979, as described by Ballard S A et al.; J. Urology 159(6), 2164-2171, 1998. In particular, cGMP-specific PDE-5 and cGMP-inhibited cAMP PDE-3 can be obtained from human corpus cavernosum tissue, human platelets or rabbit platelets; cGMP-stimulated PDE-2 was obtained from human corpus cavernosum; calcium/calmodulin (Ca/CAM)-dependent PDE-1 from human cardiac ventricle; cAMP-specific PDE-4 from human skeletal muscle; and photoreceptor PDE-6 from bovine retina. Phosphodiesterases 7-11 can be generated from full length human recombinant clones transfected into SF9 cells. […]

Row | Compound | pIC50
1 | CCOCCn1nc(COC)c2nc(N3CCN[C@H](C)C3)nc(Nc3cc(C)ccn3)c21 [Example 184, N-[1-(2-Ethoxyethyl)-3-methoxymethyl-5-((3R)-(3-methylpiperazin-1-yl))-1H-pyrazolo[4,3-d]pyrimidin-7-yl]-4-methylpyridin-2-ylamine dihydrochloride] | 8.53
2 | COCc1nn(CCOCC(F)(F)F)c2c(Nc3cc(C)ccn3)nc(N3CCN[C@H](C)C3)nc12 [Example 253] | 8.92
